In patent US20230203155A1 (ALMAC DISCOVERY, published 2023):
Where two headings read alike, the source gives them in different places.

Chains of the proteins cited; added tags and fusions are not shown. A line that says so, or that is headed by a name, gives the form on record, which may keep a tag or linker.
human ROR2-hFc fusion protein (extracellular domain), one chain, as listed by the source limits assumed: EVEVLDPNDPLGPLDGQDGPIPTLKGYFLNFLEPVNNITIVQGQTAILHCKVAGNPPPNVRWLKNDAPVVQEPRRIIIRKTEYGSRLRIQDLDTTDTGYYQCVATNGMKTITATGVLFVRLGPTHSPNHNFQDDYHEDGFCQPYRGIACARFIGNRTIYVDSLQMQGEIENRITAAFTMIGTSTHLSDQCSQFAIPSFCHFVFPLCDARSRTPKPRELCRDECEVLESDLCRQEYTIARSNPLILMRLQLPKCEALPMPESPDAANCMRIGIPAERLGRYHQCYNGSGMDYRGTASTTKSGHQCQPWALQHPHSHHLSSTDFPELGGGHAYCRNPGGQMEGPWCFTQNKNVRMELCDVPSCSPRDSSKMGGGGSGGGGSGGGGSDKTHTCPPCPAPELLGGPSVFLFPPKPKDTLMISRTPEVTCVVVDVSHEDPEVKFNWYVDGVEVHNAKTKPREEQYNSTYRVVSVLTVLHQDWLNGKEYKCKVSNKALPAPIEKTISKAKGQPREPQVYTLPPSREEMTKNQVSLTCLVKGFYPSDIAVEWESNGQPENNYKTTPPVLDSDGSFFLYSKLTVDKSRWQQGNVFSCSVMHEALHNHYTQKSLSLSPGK
human ROR1-hFc fusion protein (extracellular domain), one chain, as listed by the source limits assumed: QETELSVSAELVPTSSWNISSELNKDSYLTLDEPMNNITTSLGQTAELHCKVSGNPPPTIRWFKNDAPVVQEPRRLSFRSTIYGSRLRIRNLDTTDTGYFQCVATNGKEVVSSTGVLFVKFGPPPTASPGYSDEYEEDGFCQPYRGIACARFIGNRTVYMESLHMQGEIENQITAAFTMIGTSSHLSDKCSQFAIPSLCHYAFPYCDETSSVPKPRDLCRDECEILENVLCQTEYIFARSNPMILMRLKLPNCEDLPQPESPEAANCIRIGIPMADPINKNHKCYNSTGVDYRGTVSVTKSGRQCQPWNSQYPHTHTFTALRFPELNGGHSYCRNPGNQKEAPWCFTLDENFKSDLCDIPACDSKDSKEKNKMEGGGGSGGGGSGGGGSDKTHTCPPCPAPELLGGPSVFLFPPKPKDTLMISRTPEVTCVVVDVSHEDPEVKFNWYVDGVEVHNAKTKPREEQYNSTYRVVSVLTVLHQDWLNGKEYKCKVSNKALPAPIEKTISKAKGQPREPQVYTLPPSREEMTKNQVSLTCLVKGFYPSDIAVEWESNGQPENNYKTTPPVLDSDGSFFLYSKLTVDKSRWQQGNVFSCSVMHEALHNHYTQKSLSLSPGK

Columns and labels:
[1] = molecular target: T1, human ROR2-hFc fusion protein (extracellular domain) (human); assay: SPR, ROR2-hFc on chip
T1 construct: Whole entry 'human ROR2-Fc (CHO)'; also called hROR2

[2] = molecular target: T2, human ROR1 on the surface of ROR1hi human cancer cell lines (human, UniProt Q01973); assay: flow cytometry, A549 (ROR1hi) against A427 (ROR1low) cells, PE-anti-human antibody
T2 construct: whole, on cells; Cell line is named under assay; also called cell surface ROR1

[3] = molecular target: T3, human ROR1-hFc fusion protein (extracellular domain) (human); assay: SPR, ROR1-hFc on chip
T3 construct: Whole entry 'human ROR1-Fc (CHO)'; also called hROR1; huROR1-Fc

[4] = molecular target: T3, human ROR1-hFc fusion protein …; assay: SPR, ROR1-hFc on chip; remark: listed apart in the source

Binder	binding result [1]	binding result [2]	Kd [3] [nM]	koff [3] [s⁻¹]	kon [3] [M⁻¹ s⁻¹]	Kd [4] [nM]	koff [4] [s⁻¹]	kon [4] [M⁻¹ s⁻¹]
P3A1 hFc-MMAE (Fc fusion, MC vc PAB MMAE on engineered Cys S252C (Kabat); DAR 2, also called P3A1 hFc-vcMMAE) TRVDQTPRTATKETGESLTINCVLTDTSYGLYSTSWFRKNPGTTDWERMSIGGRYVESVNKGAKSFSLRIKDLTVADSATYYCKAREARHPWLRQWYDGAGTVLTVNGGGGSGGGGSGGGGS[human IgG1 Fc with changes cut from this listing]	no binding	binds	0.38	0.001	2.68e+06	–	–	–
P3A1 hFc (Fc fusion, also called P3A1 hFc (S252C)) TRVDQTPRTATKETGESLTINCVLTDTSYGLYSTSWFRKNPGTTDWERMSIGGRYVESVNKGAKSFSLRIKDLTVADSATYYCKAREARHPWLRQWYDGAGTVLTVNGGGGSGGGGSGGGGS[human IgG1 Fc with changes cut from this listing]	no binding	–	0.084	0.000564	1.07e+07	0.084	0.000564	1.07e+07
